# Reference: PubChem BioAssay AID1208 (EPA DSSTox, 2008)
# Some tests of the compounds listed are not included; inactive here does not mean inactive elsewhere. Calls of active or inactive are those of the source.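 Rule for the calls: active = at least one rat sex group has a carcinogenic potency value and tumor site recorded; inconclusive = only rat studies were judged inadequate by the national testing program; inactive = no potency or tumor site, with negative rat experiments.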
# Tested on: rat chronic carcinogenicity bioassay, TD50
# Experiment: DSSTox (CPDBAS) Carcinogenic Potency Database Summary Rat Bioassay Results
# Conditions: TD50_Rat_Note: no positive results; TargetSites_Rat_Female: no positive results
# Excerpt: The Carcinogenic Potency Database (CPDB) is a unique and widely used international resource of the results of over 6500 chronic, long-term animal cancer tests on over 1500 chemical substances. The CPDB provides easy access to the bioassay literature, with qualitative and quantitative analyses of both positive and negative experiments that have been published over the past 50 years in the general literature and by the National Cancer Institute/National Toxicology Program. The CPDB standardizes the diverse literature of cancer bioassays that vary widely in protocol, histopathological examination and nomenclature, and in the published author's choices of what information to provide in their papers. Results are reported in the CPDB for tests in rats, mice, hamsters, dogs, and nonhuman primates, and are based on the most positive result among all experiments for each sex-species. The DSSTox CPDBAS (all species) file incorporates data from the CPDB Summary Tables for the full list of over 1500 chemical substances tested in at least one species. Summary bioassay results for Rat (TD50, tumor sites, male, female, both sexes) are provided in the CPDB Summary Tables and the DSSTox CPDBAS file for over 1200 chemical substances.
# TD50 is a standardized quantitative measure of carcinogenic potency (analogous to an LD50) and is reported in the CPDB Summary Table for each species. […]
smiles,measurement,value
N#CC(C#N)=Cc1ccccc1Cl,outcome,inactive; no positive results
